Consider 1 molecule from BindingDB's records for doi:10.1021/jm8006933 (Duquesne University, 2008).

Structures are written as SMILES.

Test [1] deals with T1, Bifunctional dihydrofolate reductase-thymidylate synthase (Toxoplasma gondii, UniProt Q07422).
T1 sequence (Q07422 whole entry): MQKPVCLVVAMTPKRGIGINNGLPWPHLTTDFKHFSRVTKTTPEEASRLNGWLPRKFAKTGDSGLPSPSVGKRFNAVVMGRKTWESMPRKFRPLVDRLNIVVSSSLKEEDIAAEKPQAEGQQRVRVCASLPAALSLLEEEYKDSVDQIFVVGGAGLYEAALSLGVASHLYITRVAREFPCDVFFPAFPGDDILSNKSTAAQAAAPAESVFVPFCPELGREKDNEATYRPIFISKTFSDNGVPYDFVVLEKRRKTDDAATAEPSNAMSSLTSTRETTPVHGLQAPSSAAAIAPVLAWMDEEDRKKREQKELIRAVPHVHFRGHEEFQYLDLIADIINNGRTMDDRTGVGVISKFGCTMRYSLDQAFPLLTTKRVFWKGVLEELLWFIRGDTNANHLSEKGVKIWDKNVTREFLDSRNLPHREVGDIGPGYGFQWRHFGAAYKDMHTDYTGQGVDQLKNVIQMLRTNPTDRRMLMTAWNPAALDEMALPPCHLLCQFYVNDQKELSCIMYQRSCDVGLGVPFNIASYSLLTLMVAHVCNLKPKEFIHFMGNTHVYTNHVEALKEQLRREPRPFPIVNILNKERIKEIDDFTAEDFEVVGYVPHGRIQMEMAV

In test [2] the target is T1, Bifunctional dihydrofolate reductase-thymidylate synthase. The source holds these as a separate data set.

As a reminder, the IC50 is the point on the concentration scale where inhibition reaches its midpoint. Higher therefore signals weaker potency in that assay. For `Cc1sc2nc(N)[nH]c(=O)c2c1Sc1ccc(C(=O)N(CCC(=O)O)C(=O)O)cc1` [N-{4-[(2-Amino-6-methyl-4-oxo-3,4-dihydrothieno[2,3-d]pyrimidin-5-yl)sulfanyl]benzoyl}-L-glutamic acid], the IC50 in test [1] was 36 nM; in test [2], 8 nM.
